## Reported logP (octanol/water) values for industrial, environmental and drug-like chemicals

Values as listed in the OPERA 2.9 repository of K. Mansouri.

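These are experimental values that the OPERA curators gathered from public databases to train and test their QSAR models. A listed value is a point estimate from one report or more. Conditions of the individual experiments are not part of the data. The measured form (salt, isomer or mixture) is not always the one drawn. Unmarked limits or estimates from the upstream databases cannot be ruled out.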

The octanol-water partition coefficient is given as log10; larger values mean a more lipophilic compound. "via" names the databases from which the curators took the value.

The entry for NCCCCCN [Cadaverine] lists logP (octanol/water) -0.3 (via eChemPortal).
The entry for COCCOCCOCCNC(C)(C)C lists logP (octanol/water) 0.9 (via eChemPortal).
The entry for CCOP(=O)([O-])Cc1cc(C(C)(C)C)c(O)c(C(C)(C)C)c1.CCOP(=O)([O-])Cc1cc(C(C)(C)C)c(O)c(C(C)(C)C)c1.[Ca+2] lists logP (octanol/water) -0.1 (via eChemPortal).
The entry for Brc1cccc(Oc2cccc(Br)c2)c1 [1,1'-Oxybis(3-bromobenzene)] lists logP (octanol/water) 5.03 (via OCHEM).
The entry for COC(=O)C(CNC(=O)c1ccccc1C(F)(F)F)(C(=O)OC)c1ncc(C(F)(F)F)cc1Cl lists logP (octanol/water) 3.6 (via eChemPortal).
The entry for C[C@H](Cn1cnc2c(N)ncnc21)OCP(=O)(O)O [Tenofovir] lists logP (octanol/water) -1.6 (via PubChem).
The entry for CN(C)CCCNCCC#N [3-{[3-(Dimethylamino)propyl]amino}propanenitrile] lists logP (octanol/water) 0.077 (via eChemPortal).
The entry for O=S(=O)(Cl)c1ccc2ccccc2c1 [2-Naphthalenesulfonyl chloride] lists logP (octanol/water) 2.207 (via eChemPortal).
The entry for CC(O)CNS(=O)(=O)CCCS(=O)(=O)c1ccc(C#N)c(C#N)c1 (stereo not drawn) lists logP (octanol/water) -0.226 (via eChemPortal).
The entry for CCOC(=O)c1ccc2sc3ccccc3c(=O)c2c1 [Ethyl 9-oxo-9H-thioxanthene-2-carboxylate] lists logP (octanol/water) 4.97 (via eChemPortal).
The entry for CCC(=O)CC(C)CC (stereo not drawn) [5-Methyl-3-heptanone] lists logP (octanol/water) 2.76 (via eChemPortal).
The entry for CN(C)CCCNC(=O)NCCCN(C)C [1,3-Bis(3-(dimethylamino)propyl)urea] lists logP (octanol/water) 0.817 (via eChemPortal).
The entry for C=C(C)C(=O)NC(C)C [N-Isopropylmethacrylamide] lists logP (octanol/water) 0.491 (via eChemPortal).
The entry for COc1ccccc1C=Cc1ccc(-c2ccc(C=Cc3ccccc3OC)cc2)cc1 [1,1'-Biphenyl, 4,4'-bis[2-(2-methoxyphenyl)ethenyl]-] lists logP (octanol/water) 7.7 (via eChemPortal).
The entry for O=C(O)c1cc(C(=O)O)cc(S(=O)(=O)[O-])c1.[Na+] [Sodium 5-sulfoisophthalate] lists logP (octanol/water) -1.7 (via eChemPortal).
The entry for C#CCN [2-Propyn-1-amine] lists logP (octanol/water) -0.43 (via OCHEM).
The entry for O=c1c2ccccc2c2ccc3sc4ccccc4c4ccc1c2c34 [14H-Anthra[2,1,9-mna]thioxanthen-14-one] lists logP (octanol/water) 3.6 (via eChemPortal).
The entry for CC(=O)C(=NNc1ccc(-c2ccc(NN=C(C(C)=O)C(=O)Nc3ccc(C)cc3C)c(Cl)c2)cc1Cl)C(=O)Nc1ccc(C)cc1C [C.I. Pigment Yellow 13] lists logP (octanol/water) 1.8 (via eChemPortal).
The entry for C=CC(C)C(=O)OCC (stereo not drawn) [Ethyl 2-methylbut-3-enoate] lists logP (octanol/water) 2.2 (via eChemPortal).
The entry for CCCCCCCCC1CCC(=O)O1 (stereo not drawn) [gamma-Dodecalactone] lists logP (octanol/water) 2.7 (via eChemPortal).
The entry for CCCCCCCCC=CCCCCCCCC(=O)OC(C)C lists logP (octanol/water) 5.69 (via eChemPortal).
The entry for CCN(CC)c1ccc2nc3ccc(=[N+](CC)CC)cc-3oc2c1.O=C[O-] [Phenoxazin-5-ium, 3,7-bis(diethylamino)-, formate] lists logP (octanol/water) 2.8 (via eChemPortal).
The entry for O=[N+]([O-])c1ccc(Cl)nc1Cl [2,6-Dichloro-3-nitropyridine] lists logP (octanol/water) 1.96 (via OCHEM).
The entry for Cc1ccccc1Br [2-Bromotoluene] lists logP (octanol/water) 3.5 (via PubChem).
The entry for NCCCN1CCOCC1 [4-Morpholinepropanamine] lists logP (octanol/water) -1.076 (via eChemPortal).
The entry for C=CC(=O)OCCCCOC(=O)Oc1ccc(C(=O)O)cc1 lists logP (octanol/water) 1.7 (via eChemPortal).
The entry for O=C1C=CN([C@@H]2O[C@H](CO)[C@@H](O)[C@H]2O)C(=O)C1 [1-beta-D-Ribofuranosyl-2,4(1H,3H)-pyridinedione] lists logP (octanol/water) -0.86 (via OCHEM).
The entry for CCCCC1=NC2(CCCC2)C(=O)N1Cc1ccc(-c2ccccc2C#N)cc1 lists logP (octanol/water) 3.7 (via eChemPortal).
The entry for Nc1cc(S(=O)(=O)O)ccc1S(=O)(=O)O [2-Aminobenzene-1,4-disulfonic acid] lists logP (octanol/water) -0.886 (via eChemPortal).
The entry for COC[P+](c1ccccc1)(c1ccccc1)c1ccccc1.[Cl-] [(Methoxymethyl)(triphenyl)phosphanium chloride] lists logP (octanol/water) -1.17 (via eChemPortal).
The entry for CCCCCCCCCc1cc(CN(CCO)CCO)c(O)c(CN(CCO)CCO)c1 [Phenol, 2,6-bis[[bis(2-hydroxyethyl)amino]methyl]-4-nonyl-] lists logP (octanol/water) 3.95 (via eChemPortal).
The entry for Clc1cc(Cl)c(Cl)c(-c2c(Cl)c(Cl)cc(Cl)c2Cl)c1 [2,2',3,3',5,5',6-Heptachlorobiphenyl] lists logP (octanol/water) 7.14 (via OCHEM).
The entry for Cc1cccc(C)c1OCC(O)COc1c(C)cccc1C [1,3-Bis(2,6-dimethylphenoxy)-2-propanol] lists logP (octanol/water) 3.9 (via eChemPortal).
The entry for C=C1CCOC(c2ccc(O)c(OC)c2)C1 (stereo not drawn) [Phenol, 2-methoxy-4-(tetrahydro-4-methylene-2H-pyran-2-yl)-] lists logP (octanol/water) 2.31 (via OCHEM).
The entry for NCCNCCS(=O)(=O)[O-].[Na+] lists logP (octanol/water) -3.1 (via eChemPortal).
The entry for CCCCCCC1=CCCC1=O [2-Hexylcyclopent-2-enone] lists logP (octanol/water) 2.3 (via eChemPortal).

Excerpt, the final 6 entries:

{"smiles": "CCCCCCCCCc1cc(CN(CCO)CCO)c(O)c(CN(CCO)CCO)c1", "name": "Phenol, 2,6-bis[[bis(2-hydroxyethyl)amino]methyl]-4-nonyl-", "logP (octanol/water)": "3.95", "via": "eChemPortal"}
{"smiles": "Clc1cc(Cl)c(Cl)c(-c2c(Cl)c(Cl)cc(Cl)c2Cl)c1", "name": "2,2',3,3',5,5',6-Heptachlorobiphenyl", "logP (octanol/water)": "7.14", "via": "OCHEM"}
{"smiles": "Cc1cccc(C)c1OCC(O)COc1c(C)cccc1C", "name": "1,3-Bis(2,6-dimethylphenoxy)-2-propanol", "logP (octanol/water)": "3.9", "via": "eChemPortal"}
{"smiles": "C=C1CCOC(c2ccc(O)c(OC)c2)C1", "stereo": "stereo not drawn", "name": "Phenol, 2-methoxy-4-(tetrahydro-4-methylene-2H-pyran-2-yl)-", "logP (octanol/water)": "2.31", "via": "OCHEM"}
{"smiles": "NCCNCCS(=O)(=O)[O-].[Na+]", "logP (octanol/water)": "-3.1", "via": "eChemPortal"}
{"smiles": "CCCCCCC1=CCCC1=O", "name": "2-Hexylcyclopent-2-enone", "logP (octanol/water)": "2.3", "via": "eChemPortal"}